The text below walks through data of paper PMC467105, “A comprehensive investigation of the anion inhibition profile of a β-carbonic anhydrase from Acinetobacter baumannii for crafting innovative antimicrobial treatments” (Journal of Enzyme Inhibition and Medicinal Chemistry, 2024).

By UniProt entry, the sequences of proteins in these tests, tags left out. Residues count along the entry.
UniProt A0A7U3Y636, 1-204: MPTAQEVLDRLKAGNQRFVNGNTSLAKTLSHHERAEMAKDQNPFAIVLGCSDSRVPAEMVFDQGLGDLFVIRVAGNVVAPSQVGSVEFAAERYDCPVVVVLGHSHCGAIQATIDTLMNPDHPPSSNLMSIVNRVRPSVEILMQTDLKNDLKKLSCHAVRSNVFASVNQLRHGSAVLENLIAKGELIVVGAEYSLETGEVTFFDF

For test [1], the target named is PgiCAβ (Porphyromonas gingivalis β-CA). Further details: method as in PMID 24146373. Particulars: cited from earlier work.
Test [2] addresses β-AbauCA (Acinetobacter baumannii β-CA, CanB) (Acinetobacter baumannii, UniProt A0A7U3Y636). In kind it is biochemical.

Consider `O=[Te](=O)(O)O` [TeO4^2-, tellurate], for which the Ki in test [1] was 3.9 mM.

On to fluorosulfonate [FSO3^-], for which, in test [2], the Ki was 29.3 mM.

By Ki is commonly meant the equilibrium dissociation constant of an inhibitor or competing ligand from its target.
